Experimental data taken from PMC9257625 (RSC Chemical Biology, 2022).

Sequences of proteins named here, by UniProt entry; tags and fusion partners are left off. Residues count along the entry.
UniProt P06873, 106-384: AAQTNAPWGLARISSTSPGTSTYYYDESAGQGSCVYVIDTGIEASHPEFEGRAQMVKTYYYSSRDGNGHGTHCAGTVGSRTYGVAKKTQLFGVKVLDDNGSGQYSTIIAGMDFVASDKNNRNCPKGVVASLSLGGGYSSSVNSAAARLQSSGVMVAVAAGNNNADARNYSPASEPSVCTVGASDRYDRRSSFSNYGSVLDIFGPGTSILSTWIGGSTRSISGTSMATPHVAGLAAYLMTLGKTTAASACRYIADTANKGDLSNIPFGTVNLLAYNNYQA
UniProt P00791, 60-385: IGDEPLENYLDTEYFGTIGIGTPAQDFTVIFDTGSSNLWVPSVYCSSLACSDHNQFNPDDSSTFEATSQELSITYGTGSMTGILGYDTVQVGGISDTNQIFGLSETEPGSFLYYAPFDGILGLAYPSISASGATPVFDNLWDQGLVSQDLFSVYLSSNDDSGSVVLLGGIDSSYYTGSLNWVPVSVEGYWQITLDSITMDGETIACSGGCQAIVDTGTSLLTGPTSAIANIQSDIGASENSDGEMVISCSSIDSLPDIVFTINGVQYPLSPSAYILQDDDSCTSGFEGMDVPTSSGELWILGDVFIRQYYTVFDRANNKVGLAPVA

What was measured:
proteinase K = proteinase K (Parengyodontium album, UniProt P06873); assay: Protease stability assay, proteinase K; type: in vitro ADME, fungal
pepsin = pepsin (Sus scrofa, UniProt P00791); assay: Protease stability assay, pepsin; type: in vitro ADME, porcine
chymotrypsin = chymotrypsin (Bos taurus, UniProt P00766); assay: Protease stability assay, chymotrypsin; type: in vitro ADME, bovine

CC(=O)N[C@@H](CC(C)C)C(=O)N[C@H](C(=O)N[C@@H](Cc1ccccc1)C(=O)N[C@@H](CCC(=O)O)C(=O)N[C@@H](Cc1cnc[nH]1)C(=O)N[C@@H](Cc1ccc(O)cc1)C(=O)N[C@@H](Cc1c[nH]c2ccccc12)C(=O)N[C@@H](C)C(=O)N[C@@H](CCC(N)=O)C(=O)N[C@@H](CC(C)C)C(=O)N[C@H](C(=O)N[C@@H](CO)C(N)=O)[C@@H](C)O)[C@@H](C)O [Peptide 1]
≤ 1 h: Time to cleavage by proteinase K (proteinase K) | Time to cleavage by pepsin (pepsin) | Time to cleavage by chymotrypsin (chymotrypsin)
